Data as given in ChEMBL document CHEMBL3638796, “Nitrogen-containing heterocyclic compound and use thereof” (2013).

Chains of the proteins cited; added tags and fusions are not shown.
UniProt P25103, whole entry: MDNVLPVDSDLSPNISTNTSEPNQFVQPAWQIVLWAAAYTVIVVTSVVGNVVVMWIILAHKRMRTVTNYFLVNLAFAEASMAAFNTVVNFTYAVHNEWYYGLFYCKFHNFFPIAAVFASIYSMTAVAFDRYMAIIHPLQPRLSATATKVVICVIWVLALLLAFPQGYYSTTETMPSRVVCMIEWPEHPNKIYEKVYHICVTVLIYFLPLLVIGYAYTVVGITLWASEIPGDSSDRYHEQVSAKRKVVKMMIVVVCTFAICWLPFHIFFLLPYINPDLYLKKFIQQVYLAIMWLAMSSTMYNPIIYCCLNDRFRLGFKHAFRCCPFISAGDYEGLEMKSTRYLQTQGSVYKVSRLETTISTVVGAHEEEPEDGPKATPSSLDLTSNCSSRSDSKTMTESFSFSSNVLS

Target: Substance-P receptor (Homo sapiens, UniProt P25103)
Assay: Human NK1 Receptor Binding Assay: IM-9 cells (2×10^5 cells/mL) were cultured for 3 days after inoculation, and centrifuged at 500×g for 10 min to give cell pellets. The obtained pellets were washed with PBS (Phosphate-Buffered saline) (GIBCO), disrupted in buffer A (50 mM Tris-hydrochloric acid buffer (Tris-HCl) (pH 7.4) containing 120 mM sodium chloride, 5 mM potassium chloride, 2 μg/mL …
Assay type: cell-based

IC50: 1.5 nM
Structure (SMILES): CC(=O)C1CCC(C(=O)N2CC(c3ccc(Cl)c(Cl)c3)[C@H](N(C)C(=O)c3cc(C(F)(F)F)cc(C(F)(F)F)c3)C2)CC1 (stereo partly specified)
